SMILES strings stand for the structures.

By UniProt entry, the sequences of proteins in these tests, tags left out.
UniProt P41143, whole entry, looked up: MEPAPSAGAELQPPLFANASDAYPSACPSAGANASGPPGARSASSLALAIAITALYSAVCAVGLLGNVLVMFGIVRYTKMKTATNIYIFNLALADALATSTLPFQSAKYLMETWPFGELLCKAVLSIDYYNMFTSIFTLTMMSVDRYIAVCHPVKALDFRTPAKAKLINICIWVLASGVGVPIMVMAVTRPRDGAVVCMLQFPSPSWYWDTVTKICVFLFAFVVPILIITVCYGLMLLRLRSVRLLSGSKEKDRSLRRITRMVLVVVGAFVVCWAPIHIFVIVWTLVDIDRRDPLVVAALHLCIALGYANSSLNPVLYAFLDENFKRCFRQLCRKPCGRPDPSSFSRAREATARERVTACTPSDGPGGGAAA

The term Ki denotes the equilibrium dissociation constant of an inhibitor or competing ligand from its target. Low readings indicate higher affinity, high ones lower affinity.

This test has as its target Delta-type opioid receptor (Homo sapiens, UniProt P41143). Kind of test: ChEBML_147151.

For `CN(C(=O)Cc1ccc(Cl)c(Cl)c1)[C@@H]1CCCC[C@H]1N1CCCC1`, the Ki is 2500 nM.
